Measurements published in patent US3976762A (priority 1974, dated 1976).
Like-named read-outs stand apart in the source and are kept apart here.

Details: for Carcass, percent of total injected radioactivity / Gut, percent of total injected radioactivity / Kidney, percent of total injected radioactivity / Liver, percent of total injected radioactivity / Lungs, percent of total injected radioactivity / Pancreas, percent of total injected radioactivity / Spleen, percent of total injected radioactivity / Stomach, percent of total injected radioactivity / Urine and Feces, percent of total injected radioactivity: tail vein
[1] = mice, 0 h after injection, Sn(II) prep. of Ex. 1 (1 mg/ml), 3-5
[2] = mice, 1/2 h after injection, Sn(II) prep. of Ex. 1 (1 mg/ml), 3-5
[3] = mice, 1 h after injection, Sn(II) prep. of Ex. 1 (1 mg/ml), 3-5
[4] = mice, 2 h after injection, Sn(II) prep. of Ex. 1 (1 mg/ml), 3-5
[5] = mice, 4 h after injection, Sn(II) prep. of Ex. 1 (1 mg/ml), 3, 5

In the case of “Tc-99m-chloromethylphosphonic acid diethylester”, the “Liver uptake and duration (in words)” value (animal liver) was “rapidly taken up by the animal liver and concentrations remain high for approximately two hours”, the “Localization / excretion of the complex (in words)” value (mice) was “preferentially eliminated via the liver” and the “Carcass, percent of total injected radioactivity” value (shortened to “Carcass, percent”) [1] was 40.9%. The “Gut, percent of total injected radioactivity” value (“Gut, percent” below) [1] was 12.0%, the “Kidney, percent of total injected radioactivity” value (from here on “Kidney, percent”) [1] was 7.0% and the “Liver, percent of total injected radioactivity” value (from here on “Liver, percent”) [1] was 29.7%. The “Lungs, percent of total injected radioactivity” value (“Lungs, percent” for short) [1] was 8.3%, the “Pancreas, percent of total injected radioactivity” value (“Pancreas, percent” for short) [1] was 0.8% and the “Spleen, percent of total injected radioactivity” value (“Spleen, percent” below) [1] was 0.3%. For the same substance, the “Stomach, percent of total injected radioactivity” value (“Stomach, percent” for short) [1] was 1.0%, the “Urine and Feces, percent of total injected radioactivity” value (shortened to “Urine and Feces, percent”) [1] was 0.0% and the “Carcass, percent” value [2] was 18.4%. For the same substance, the “Gut, percent” value [2] was 29.5%, the “Kidney, percent” value [2] was 3.7% and the “Liver, percent” value [2] was 52.8%. For the same substance, the “Lungs, percent” value [2] was 1.8%, the “Pancreas, percent” value [2] was 0.3% and the “Spleen, percent” value [2] was 0.9%. The “Stomach, percent” value [2] was 0.6%, the “Urine and Feces, percent” value (mice, 1/2 h after injection, Sn(II) prep. of Ex. 1 (1 mg/ml), 3-5, 30 min) was 8.1% and the “Carcass, percent” value [3] was 12.5%. The “Gut, percent” value [3] was 35.5%, the “Kidney, percent” value [3] was 6.0% and the “Liver, percent” value [3] was 37.2%. The “Lungs, percent” value [3] was 3.4%, the “Pancreas, percent” value [3] was 0.2% and the “Spleen, percent” value [3] was 0.4%. For the same substance, the “Stomach, percent” value [3] was 0.6%, the “Urine and Feces, percent” value [3] was 4.1% and the “Carcass, percent” value [4] was 12.8%. For the same substance, the “Gut, percent” value [4] was 48.2%, the “Kidney, percent” value [4] was 4.7% and the “Liver, percent” value [4] was 26.2%. For the same substance, the “Lungs, percent” value [4] was 1.3%, the “Pancreas, percent” value [4] was 0.2% and the “Spleen, percent” value [4] was 0.7%. The “Stomach, percent” value [4] was 0.5%, the “Urine and Feces, percent” value [4] was 5.4% and the “Carcass, percent” value [5] was 7.3%. For the same substance, the “Gut, percent” value [5] was 15.7%, the “Kidney, percent” value [5] was 2.3% and the “Liver, percent” value [5] was 19.2%. The “Lungs, percent” value [5] was 1.0%, the “Pancreas, percent” value [5] was 0.1% and the “Spleen, percent” value [5] was 0.4%. The “Stomach, percent” value [5] was 0.4% and the “Urine and Feces, percent” value [5] was 53.6%.
